Chains of the proteins cited; added tags and fusions are not shown.
UniProt P03372, whole entry: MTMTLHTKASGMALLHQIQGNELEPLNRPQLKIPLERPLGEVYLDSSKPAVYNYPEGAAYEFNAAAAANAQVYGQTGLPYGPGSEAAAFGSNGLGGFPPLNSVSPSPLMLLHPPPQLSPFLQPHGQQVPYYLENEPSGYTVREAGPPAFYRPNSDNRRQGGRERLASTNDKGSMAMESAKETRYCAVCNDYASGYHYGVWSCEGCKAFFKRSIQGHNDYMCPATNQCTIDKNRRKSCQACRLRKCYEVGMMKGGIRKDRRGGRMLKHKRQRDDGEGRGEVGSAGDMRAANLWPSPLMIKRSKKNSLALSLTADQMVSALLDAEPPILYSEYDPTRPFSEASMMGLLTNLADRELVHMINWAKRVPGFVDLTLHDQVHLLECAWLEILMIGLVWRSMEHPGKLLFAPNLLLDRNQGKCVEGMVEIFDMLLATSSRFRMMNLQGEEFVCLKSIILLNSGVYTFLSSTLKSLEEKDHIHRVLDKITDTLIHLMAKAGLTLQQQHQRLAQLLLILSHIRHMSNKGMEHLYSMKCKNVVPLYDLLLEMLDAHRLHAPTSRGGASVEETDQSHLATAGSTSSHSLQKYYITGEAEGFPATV

In US20130252890A1, “6,7-DIHYDRO-5H-BENZO[7]ANNULENE DERIVATIVES, PROCESS FOR PREPARATION THEREOF, PHARMACEUTICAL PREPARATIONS COMPRISING THEM, AND THE USE THEREOF FOR PRODUCTION OF MEDICAMENTS” (BAYER INTELLECTUAL PROPERTY GMBH, priority 2010, published 2013):

Target: oestrogen receptor (ER) (Homo sapiens, UniProt P03372)
Experiment: Anti-oestrogenic action in MVLN cells (inhibition of estradiol-induced luciferase)
Type: cell-based
Conditions: read-out: Antioestrogenic action in vitro: MVLN transactivation antagonism IC50, inhibition of estradiol-induced luciferase signal, value of Ex. 44 is a mean value
From the text: The anti-oestrogenic action of the claimed pharmacological compounds was investigated in so-called MVLN cells in vitro. MVLN cells are derivatives of the hormone-responsive MCF7 breast cancer cells known by a person skilled in the art. These MVLN cells express, along with the functional oestrogen receptor (ER), a reporter construct, which under ER-activation expresses luciferase. Determination of the activity of the induced luciferase permits a direct conclusion on the oestrogen properties of substances. To investigate the anti-oestrogenic properties of the pharmacological compounds, they were investigated in the presence of oestrogen for their potential for inhibiting the luciferase signal induced by estradiol. The claimed pharmacological test substances were investigated in MVLN cells for their anti-oestrogenic potential, as described (see Table 2).

- IC50: 46 nM
SMILES: O=S(=O)(CCCN(CCCCCCC1=C(c2ccc(F)c(F)c2)CCCc2cc(O)ccc21)C1CC1)CCCC(F)(F)C(F)(F)F
